Earlier results as cited in US7604797B2, “Compositions and methods for treating burns” (BioMechanisms Inc., priority 2003, dated 2009).

System: burn patients
Conditions: in vivo

Neomycin
Toxicity and adverse effects in use: Ototoxicity and
